Patent US6143715A, “Hepatitis C inhibitor peptide analogues” (priority 1998, dated 2000)
Like-named read-outs stand apart in the source and are kept apart here.

By UniProt entry, the sequences of proteins in these tests, tags left out. Residues count along the entry.
UniProt P26663, 1027-1206: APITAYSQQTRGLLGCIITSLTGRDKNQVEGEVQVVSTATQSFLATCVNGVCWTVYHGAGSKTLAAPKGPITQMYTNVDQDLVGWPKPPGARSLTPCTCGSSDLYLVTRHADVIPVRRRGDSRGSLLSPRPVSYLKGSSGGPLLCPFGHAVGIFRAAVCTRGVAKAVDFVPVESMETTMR
UniProt P00772, 27-266: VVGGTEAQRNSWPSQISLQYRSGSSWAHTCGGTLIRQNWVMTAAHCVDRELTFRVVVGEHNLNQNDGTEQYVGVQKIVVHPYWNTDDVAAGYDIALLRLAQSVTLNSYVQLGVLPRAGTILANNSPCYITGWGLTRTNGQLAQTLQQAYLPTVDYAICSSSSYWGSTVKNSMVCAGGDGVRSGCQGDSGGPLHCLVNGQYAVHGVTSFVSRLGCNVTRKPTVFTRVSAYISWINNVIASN

Key:
[1] = molecular target: T1, HCV NS3 protease type 1b/NS4A cofactor peptide (Hepatitis C virus genotype 1b, UniProt P26663); experiment: biochemical; parameters: species or system hepatitis C virus (HCV) genotype 1b
T1 construct: recombinant HCV NS3 protease (amino acid 1027 to 1206) was cloned; made in house; host or cells: E. coli BL21(DE3)pLysS
Source text: a) Cloning, expression and purification of the recombinant HCV NS3 protease type lb
Serum from an HCV-infected patient was obtained through an external collaboration (Bernard Willems MD, Hopital St-Luc, Montreal, Canada and Dr. Donald Murphy, Laboratoire de Sante Publique du Quebec, Ste-Anne de Bellevue, Canada). An engineered full-length cDNA template of the HCV genome was constructed from DNA fragments obtained by reverse transcription-PCR (RT-PCR) of serum RNA and using specific primers selected on the basis of homology between other genotype lb strains. […] A DNA fragment encoding the polyprotein precursor (NS3/NS4A/NS4B/NS5A/NS5B) was generated by PCR and introduced into eucaryotic expression vectors.
The NS3 protease expression in E. coli BL21(DE3)pLysS was induced by incubation with 1 mM IPTG for 3 h at 22° C. […] The cells were resuspended in lysis buffer (3.0 mL/g) consisting of 25 mM sodium phosphate, pH 7.5, 10% glycerol (v/v), 1 mM EDTA, 0.01% NP-40 and stored at -80° C. Cells were thawed and homogenized following the addition of 5 mM DTT. Magnesium chloride and DNase were then added to the homogenate at final concentrations of 20 mM and 20 μg/mL respectively. After a 25 min incubation at 4° C., the homogenate was sonicated and centrifuged at 15000× g for 30 min at 4° C. The pH of the supernatant was then adjusted to 6.5 using a 1M sodium phosphate solution.
Briefly, the supernatant from the bacterial extract was loaded on a SP HiTrap column (Pharmacia) previously equilibrated at a flow rate of 2 mL/min in buffer A (50 mM sodium phosphate, pH 6.5, 10% glycerol, 1 mM EDTA, 5 mM DTT, 0.01% NP-40). The column was then washed with buffer A containing 0.15 M NaCl and the protease eluted by applying 10 column volumes of a linear 0.15 to 0.3 M NaCl gradient. NS3 protease-containing fractions were pooled and diluted to a final NaCl concentration of 0.1 M. The enzyme was further purified on a HiTrap Heparin column (Pharmacia) equilibrated in buffer B (25 mM sodium phosphate, pH 7.5, 10% glycerol, 5 mM DTT, 0.01% NP-40). The sample was loaded at a flow rate of 3 mL/min. The column was then washed with buffer B containing 0.15 M NaCl at a flow rate of 1.5 mL/min. Two step washes were performed in the presence of buffer B containing 0.3 or 1M NaCl. […] Finally, the NS3 protease-containing fractions were applied on a Superdex 75 HiLoad 16/60 column (Pharmacia) equilibrated in buffer B containing 0.3 M NaCl.
The enzyme was stored at -80° C. and was thawed on ice and diluted just prior to use.
Recombinant HCV NS3 Protease/NS4A Cofactor Peptide Radiometric Assay
The enzyme was stored at -80° C., thawed on ice and diluted just prior to use in the assay buffer containing the NS4A cofactor peptide. […]

[2] = molecular target: porcine pancreatic elastase (Sus scrofa, UniProt P00772); experiment: Specificity assay, porcine pancreatic elastase (pNA substrate); format: biochemical; conditions: 1 h enzyme-inhibitor pre-incubation at 30° C., Succ-AAA-pNA; read-out: PPE: concentration required to obtain 50% inhibition in the porcine pancreatic elastase assay
[3] = IC50: concentration required to obtain 50% inhibition in the NS3 protease/NS4A cofactor peptide radiometric assay, enzyme:cofactor 1:100, 40 min at 23° C.

| SMILES | IC50 [1] | IC50 [2] | IC50 [1, 3] |
| --- | --- | --- | --- |
| CCCN(NC(=O)[C@@H]1C[C@@H](OCc2ccccc2)CN1C(=O)[C@@H](NC(=O)[C@@H](NC(=O)[C@@H](CCC(=O)O)NC(=O)[C@H](CC(=O)O)NC(C)=O)[C@@H](C)CC)C(C)C)C(=O)N[C@H](C)c1ccccc1 [Compound 204] | 4200 nM | – | – |
| CCCN(NC(=O)[C@@H]1C[C@@H](OCc2ccccc2)CN1C(=O)[C@@H](NC(=O)[C@@H](NC(=O)[C@@H](CCC(=O)O)NC(=O)[C@H](CC(=O)O)NC(C)=O)[C@@H](C)CC)C(C)C)C(=O)N[C@@H](C)c1ccccc1 [Compound 205] | – | 4100 nM | 78 nM |
| CCCCN(NC(=O)[C@@H]1C[C@@H](OCc2ccccc2)CN1C(=O)[C@@H](NC(=O)[C@@H](NC(=O)[C@@H](CCC(=O)O)NC(=O)[C@H](CC(=O)O)NC(C)=O)[C@@H](C)CC)C(C)C)C(=O)N[C@@H](C)c1ccccc1 [Compound 210] | – | – | 85 nM |
| CC[C@H](C)[C@H](NC(=O)[C@@H](CCC(=O)O)NC(=O)[C@H](CC(=O)O)NC(C)=O)C(=O)N[C@H](C(=O)N1C[C@H](OCc2ccccc2)C[C@H]1C(=O)NN(CC)C(=O)N[C@@H](C)c1ccccc1)C(C)C [Compound 213] | – | – | 79 nM |
